Patent publication US20080268439A1, “ASSAY SYSTEMS AND METHODS FOR DETECTING MOLECULES THAT INTERACT WITH SK2 CHANNELS” (priority 2007, published 2008)

The chains behind the UniProt entries cited, without tags or fusion partners. A line that says so, or that is headed by a name, gives the form on record, which may keep a tag or linker.
UniProt Q9H2S1, with tags, fused parts or gaps DUP58-58: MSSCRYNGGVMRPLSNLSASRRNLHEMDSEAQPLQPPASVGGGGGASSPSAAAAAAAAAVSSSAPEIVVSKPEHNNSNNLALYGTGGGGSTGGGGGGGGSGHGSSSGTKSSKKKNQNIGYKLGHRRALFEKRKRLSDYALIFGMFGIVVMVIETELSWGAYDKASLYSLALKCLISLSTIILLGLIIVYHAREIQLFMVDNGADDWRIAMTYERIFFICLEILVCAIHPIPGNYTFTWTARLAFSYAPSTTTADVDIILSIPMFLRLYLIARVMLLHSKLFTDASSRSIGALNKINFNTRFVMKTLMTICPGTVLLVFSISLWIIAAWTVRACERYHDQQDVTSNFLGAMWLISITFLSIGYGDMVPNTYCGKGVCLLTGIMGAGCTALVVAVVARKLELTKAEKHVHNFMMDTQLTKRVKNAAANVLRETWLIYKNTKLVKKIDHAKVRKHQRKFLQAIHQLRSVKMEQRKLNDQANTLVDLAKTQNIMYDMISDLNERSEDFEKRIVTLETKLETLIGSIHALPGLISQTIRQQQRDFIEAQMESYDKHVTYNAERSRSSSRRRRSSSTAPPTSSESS

Target: hSK2A^+ expressed in mammalian tsA201 cells (Homo sapiens, UniProt Q9H2S1, DUP58-58)
Experiment: Membrane potential sensitive dye fluorescence (FLIPR) assay in tsA201 cells stably expressing SK2
Settings: riluzole-induced hyperpolarization, FIG. 10

Nc1nc2ccc(OC(F)(F)F)cc2s1 [Riluzole]
nH: 1.4
